The target of experiment [1] is Cyno TIGIT-Flag/His (cynomolgus). Kind of experiment: SPR 25C, antibody captured, TIGIT analyte.
The target of experiment [2] is Human TIGIT-His/Flag (human). Kind of experiment: SPR 25C, antibody captured, TIGIT analyte.
Experiment [3] has as its target Human TIGIT-His/Flag (human). Kind of experiment: HTRF, 647-TIGIT vs biotin-CD155. Background: TR-FRET usually uses a lanthanide donor and a delayed reading to cut background.

With KY09 (antibody), the Kd in experiment [1] came to 17.7 nM; in experiment [2], 2.35 nM. Besides, the IC50 in experiment [3] is 2.22 nM.
Regarding KY17 (antibody), the figures for the Kd in experiment [1] and in experiment [2] were 30.6 nM and 7.11 nM, respectively. Also, in experiment [3], the IC50 came out at 2.08 nM.
As for KY10 (antibody), the results for the Kd in experiment [1] and in experiment [2] were 2.64 nM and 0.57 nM, respectively. In addition, the IC50 in experiment [3] was found to be 4.29 nM.
In the case of KY11 (antibody), the Kd in experiment [1] worked out at 12.1 nM; in experiment [2] it was 1.89 nM. The substance also yielded an IC50 in experiment [3] of 2.27 nM.
For the substance KY18 (antibody), the Kd is 14.2 nM in experiment [1] and 3.99 nM in experiment [2]. The IC50 in experiment [3] was 1.89 nM.

The Kd is the constant that tells how readily two partners part at equilibrium. A lower Kd goes with tighter binding. What is called IC50 is the concentration that gives 50% inhibition. The low end stands for greater potency in that assay, the high end for weaker potency in that assay.

Values taken from patent US20230192847A1.
